Literature values in US20220394981A1, “MICRONUTRIENT FORMULATIONS THAT CONTROL PLANT PATHOGENS” (priority 2021, published 2022).

Legend:
[1] = cited from earlier work
[2] = cited from earlier work; remark: listed apart in the source

Substance: ethylenediamine-N,N′-bis(2-hydroxyphenyl acetic acid) [EDDHA]
- LogK Fe3+ (stability constant) [1]: 35.0
- LogK Fe2+ (stability constant) [2]: 14.3
